Yeast mating assay B: variants of the scFv Ab-14

Data: MIT Lincoln Laboratory AlphaSeq set, Li et al. 2023, doi:10.1038/s41467-023-39022-2, as distributed in FLAb.

Target: peptide PDVDLGDISGINAS, taken from heptad repeat 2 (HR2) of SARS-CoV-2 spike.

Parent: Ab-14, a human scFv built as VH, three GGGGS repeats, VL. Only the CDRs of the heavy chain vary.
VH: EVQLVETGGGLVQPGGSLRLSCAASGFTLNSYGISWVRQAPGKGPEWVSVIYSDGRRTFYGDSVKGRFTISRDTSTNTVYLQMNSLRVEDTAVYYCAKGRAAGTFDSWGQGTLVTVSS
VL: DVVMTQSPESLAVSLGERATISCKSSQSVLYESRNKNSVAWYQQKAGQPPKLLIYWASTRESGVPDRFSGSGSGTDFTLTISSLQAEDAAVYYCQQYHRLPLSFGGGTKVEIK

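This is the validation round: designs drawn from the data on random variants, tested in the same kind of assay. Their group label is 14H_En_Gen (En: ensemble of fine-tuned language models; Gen: genetic algorithm). In AlphaSeq, yeast of one mating type display the scFv and yeast of the other type display the target. Pairs that bind mate more often; barcode pairs of the diploids are counted by sequencing. Scores were corrected for input abundance and mapped to Kd with protein pairs of known affinity run in the same pool. Each pool was mated in six replicate cultures.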

Variants are written as CDR1, CDR2 and CDR3 of the heavy chain (limits as in the source). Parent: GFTLNSYGIS, VIYSDGRRTFYGDSVK, GRAAGTFDS.
Numbers give log10(Kd / nM), so 0 is 1 nM and 3 is 1 µM. Smaller is tighter.
The mean shown is taken over the replicates in which the pair was detected.
"ND" means that the variant was in the library but no mating with the target was seen in that replicate; the authors take this as a sign of poor binding, and no number exists.
Background: pairings of all heavy chain designs with three empty control strains gave a value in 1% of cases (median 2.08, 5th percentile 0.84). Values in that range, when seen in few replicates, are hard to tell from nonspecific mating. For each scFv, signals with the empty controls are counted beside the result, with their mean in brackets.
The authors' rule: three or more of the six replicates give a measured affinity, fewer mean a poor binder.
The range of this assay differs from that of the first round, and the authors advise against merging the two.

| CDR-H1 | CDR-H2 | CDR-H3 | log10 Kd, replicates | log10 Kd (nM), mean | signal with controls |
|---|---|---|---|---|---|
| GFDLDEYGIS | VIYADGMRTVYADSVK | GNTAGTFDV | 0.84 0.63 0.90 0.83 0.87 0.65 | 0.79 | 0/18 |
| GFDLDEYGIS | VIYADGMRTAYADSVK | GNNAGTFDL | -0.56 -0.32 0.00 -0.46 -0.43 -0.11 | -0.31 | 0/18 |
| GFDLDEYGIS | VIYADGQRTAYADDVK | GENAGTFDV | 0.33 0.19 0.03 0.11 -0.03 0.23 | 0.14 | 0/18 |
| GFDLNEYGIS | VIYADGMRTAYADKVK | GENAGTFDQ | 0.48 -0.80 ND ND -0.64 ND | -0.32 | 0/18 |
| GFDLNEYGIS | VIYADGRRTAYSDSVK | GNVAGTFDV | -0.10 -0.83 -0.64 -0.96 -0.92 -0.17 | -0.61 | 0/18 |
| GFDLDEYGIS | VIYADGMRTAYSDSVK | GGNAGTFDV | -0.40 -0.57 -0.53 -0.50 -0.41 -0.35 | -0.46 | 0/18 |
| GFDLDEYGIS | VIYADGQRTAYADSVK | GGNAGTFDI | 0.09 0.12 -0.21 0.10 0.02 0.00 | 0.02 | 2/18 (1.85) |
| GFDLDEYGIS | VIYADGQRTAYADKVK | GNVAGTFDL | 1.74 1.44 1.17 0.44 0.60 1.06 | 1.08 | 0/18 |
| GFDLNEYGIS | VIYADGVRTAYADSVK | GGVAGTFDV | -0.49 -0.68 -0.42 -0.79 -0.72 -0.45 | -0.59 | 0/18 |
| GFDLNEYGIS | VIYADGRRTAYADSVK | GQVAGTFDT | -0.39 -0.56 -0.62 -0.82 -0.57 -0.26 | -0.54 | 0/18 |
| GFDLNEYGIS | VIYADGSRTAYADNVK | GNQAGTFDV | -0.25 0.10 -0.30 -0.31 -0.12 0.07 | -0.14 | 0/18 |
| GFDLNEYGIS | VIYADGVRTSYADSVK | GNVAGTFDT | -0.37 0.11 -0.31 -0.39 -0.72 -0.37 | -0.34 | 0/18 |
| GFDLNEYGIS | VIYADGKRTAYADSVK | GSNAGTFDQ | -0.28 -0.44 -0.61 -0.49 -0.43 -0.25 | -0.42 | 0/18 |
| GFDLDEYGIS | VIYADGRRTYYADSVK | GNNAGTFDV | -0.04 0.45 -0.24 -0.27 0.45 0.22 | 0.09 | 1/18 (1.22) |
| GFDLNEYGIS | VIYADGVRTVYADSVK | GNTAGTFDV | 0.13 -0.53 -0.32 -0.64 -0.70 -0.51 | -0.43 | 0/18 |
| GFDLDEYGIS | VIYADGKRTAYADSVK | GGNAGTFDM | 0.23 0.34 0.03 0.59 0.14 0.05 | 0.23 | 0/18 |
| GFDLNEYGIS | VIYADGMRTAYADKVK | GNQAGTFDL | 0.07 0.34 0.26 -0.41 0.39 0.81 | 0.24 | 0/18 |
| GFDLDEYGIS | VIYADGRRTAYADSVK | GQNAGTFDM | -0.83 -0.53 -0.40 -0.70 -0.88 -0.98 | -0.72 | 0/18 |
| GFDLNEYGIS | VIYADGVRTAYSDSVK | GTNAGTFDI | -0.14 0.70 -0.27 -0.08 -0.02 0.47 | 0.11 | 0/18 |
| GFDLEDYGIS | VIYADGMRTAYADNVK | GEVAGTFDV | -0.73 -0.47 -0.58 -0.72 -0.72 -0.41 | -0.61 | 0/18 |
| GFDLDEYGIS | VIYADGSRTAYADSVK | GENAGTFDQ | 0.63 0.14 0.55 -0.73 0.33 -0.20 | 0.12 | 0/18 |
| GFDLNEYGIS | VIYADGMRTAYADSVK | GDNAGTFDV | -0.48 -0.23 -0.33 -0.40 -0.59 -0.06 | -0.35 | 0/18 |
| GFDLDEYGIS | VIYADGMRTAYADDVK | GQNAGTFDT | -0.69 -0.50 -0.61 -0.42 -0.59 -0.48 | -0.55 | 0/18 |
| GFDLNEYGIS | VIYADGMRTAYANDVK | GEVAGTFDL | -0.15 ND -0.81 -0.72 -1.19 -1.60 | -0.89 | 0/18 |
| GFDLDEYGIS | VIYADGMRTAYADKVK | GNVAGTFDI | -0.41 -0.60 -1.12 -0.54 -0.50 -0.84 | -0.67 | 0/18 |
| GFDLDEYGIS | VIYADGRRTAYADSVK | GSNAGTFDV | 0.63 ND ND ND -0.45 -0.49 | -0.11 | 0/18 |
| GFDLNEYGIS | VIYADGVRTAYADSVK | GEVAGTFDL | -0.32 -0.23 -0.52 -0.59 -0.64 -0.39 | -0.45 | 0/18 |
| GFDLEEYGIS | VIYADGMRTAYSDSVK | GNVAGTFDQ | 0.00 -0.28 -0.51 -0.32 -0.45 -0.30 | -0.31 | 1/18 (2.34) |
| GFDLNEYGIS | VIYADGMRTVYADSVK | GNNAGTFDQ | 0.03 -0.10 -0.29 -0.54 -0.07 -0.35 | -0.22 | 0/18 |
| GFDLNEYGIS | VIYADGKRTAYADSVK | GEVAGTFDT | -0.35 -0.36 -0.61 -0.64 -0.37 -0.26 | -0.43 | 0/18 |
| GFDLNEYGIS | VIYADGMRTAYADSVK | GEVAGTFDI | ND 1.57 -0.49 -0.24 -0.25 -0.46 | 0.03 | 0/18 |
| GFDLDEYGIS | VIYADGMRTAYSDSVK | GQNAGTFDV | -0.24 -0.03 -0.80 -0.90 -0.51 -0.56 | -0.51 | 0/18 |
| GFDLNEYGIS | VIYADGVRTAYADSVK | GENAGTFDQ | -0.49 -0.37 -0.16 -0.24 -0.62 -0.16 | -0.34 | 0/18 |
| GFDLDEYGIS | VIYADGRRTAYADNVK | GEVAGTFDI | -0.29 -0.47 -0.60 -0.61 -0.54 -0.41 | -0.49 | 1/18 (2.30) |
| GFDLNEYGIS | VIYADGMRTAYADDVK | GNTAGTFDL | -0.60 -0.26 -0.87 -1.23 0.11 -0.99 | -0.64 | 0/18 |
| GFDLNEYGIS | VIYADGMRTYYADSVK | GETAGTFDI | 0.15 0.30 -0.28 -0.66 -0.70 -0.02 | -0.20 | 2/18 (1.83) |
| GFDLNEYGIS | VIYADGRRTFYADSVK | GENAGTFDI | -0.23 -0.27 -0.45 -0.51 -0.34 -0.25 | -0.34 | 0/18 |
| GFDLDEYGIS | VIYADGMRTAYADDVK | GEVAGTFDM | 0.33 -0.16 -0.09 -0.58 -0.14 0.11 | -0.09 | 0/18 |
| GFDLNEYGIS | VIYADGKRTFYADSVK | GGNAGTFDV | ND -1.33 -1.22 -0.87 -0.66 -0.33 | -0.88 | 0/18 |
| GFDLNEYGIS | VIYADGMRKAYADNVK | GEVAGTFDL | -0.15 -0.37 -0.36 -0.54 -0.55 -0.46 | -0.41 | 0/18 |
| GFDLNEYGIS | VIYADGMRTAYADKVK | GEVAGTFDQ | -0.12 -0.63 -0.74 -0.54 -0.57 0.09 | -0.42 | 0/18 |